The source of these data is ChEMBL document CHEMBL5370620, “Design and Synthesis of Novel GPR139 Agonists with Therapeutic Effects in Mouse Models of Social Interaction and Cognitive Impairment” (J Med Chem, 2023).

Amino acid sequences for entries named in this document (tags omitted).
UniProt P28223, whole entry: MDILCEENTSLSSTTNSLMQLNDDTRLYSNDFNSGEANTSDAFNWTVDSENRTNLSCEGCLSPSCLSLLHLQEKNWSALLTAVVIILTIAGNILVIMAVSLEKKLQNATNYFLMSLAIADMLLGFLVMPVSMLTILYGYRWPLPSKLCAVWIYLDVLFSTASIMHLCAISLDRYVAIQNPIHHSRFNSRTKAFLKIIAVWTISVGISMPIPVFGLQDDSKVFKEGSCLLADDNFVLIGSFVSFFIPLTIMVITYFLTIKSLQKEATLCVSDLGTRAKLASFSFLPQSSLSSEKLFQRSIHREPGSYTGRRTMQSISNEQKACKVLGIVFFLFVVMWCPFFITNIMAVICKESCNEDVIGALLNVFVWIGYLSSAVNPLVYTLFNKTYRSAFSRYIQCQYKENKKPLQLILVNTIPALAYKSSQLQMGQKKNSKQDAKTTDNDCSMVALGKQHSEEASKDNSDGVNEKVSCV

For test [1], the target named is 5-hydroxytryptamine receptor 2A (Homo sapiens) (UniProt P28223). The test is described as follows: Antagonist activity at 5HT2A receptor (unknown origin). The test is classed as functional.
Test [2] has the same target. The test is described as follows: Agonist activity at 5HT2A receptor (unknown origin). The test is classed as functional.
Test [3] deals with T1, Probable G-protein coupled receptor 139 (Homo sapiens) (UniProt Q6DWJ6).
T1 sequence (whole entry): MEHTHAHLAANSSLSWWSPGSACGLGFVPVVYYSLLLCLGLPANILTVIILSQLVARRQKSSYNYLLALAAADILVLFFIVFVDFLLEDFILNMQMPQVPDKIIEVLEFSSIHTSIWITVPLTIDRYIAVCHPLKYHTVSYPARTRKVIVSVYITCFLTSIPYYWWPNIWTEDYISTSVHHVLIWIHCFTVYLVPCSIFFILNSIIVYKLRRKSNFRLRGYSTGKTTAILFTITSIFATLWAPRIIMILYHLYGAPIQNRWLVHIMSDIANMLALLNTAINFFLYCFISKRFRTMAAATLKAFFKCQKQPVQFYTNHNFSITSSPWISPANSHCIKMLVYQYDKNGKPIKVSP
The test is described as follows: Potency index, ratio of TAK-041 EC50 to test compound EC50 for agonist activity at human GPR139 transfected in CHO-K1 cells assessed as increase in calcium mobilization by FLIPR analysis. Type of test: functional, cell-based. Particulars: filed as agonist. A general note: Calcium assays in cells follow changes in intracellular calcium, usually with a dye or a luminescent sensor.

Activity calls are given as the source filed them. The rule behind the calls is not given here.

Turning to `C[C@H](NC(=O)Cn1ncc2cccn2c1=O)c1ccc(OC(F)(F)F)cc1`, the outcome in test [1] and in test [2] was inactive.

For the compound `C[C@H](NC(=O)Cn1ncc2sccc2c1=O)c1ccc(Cl)c(F)c1`, the Ratio EC50 in test [3] was 7.

In the case of `C[C@H](NC(=O)Cn1ncc2sccc2c1=O)c1ccc(OC(F)(F)F)cc1`, the result in test [1] and in test [2] was inactive.
